Laboratory results taken from publication PMC5553068 (Bioorganic & medicinal chemistry, 2017).

Protein sequences, listed by entry. Tags and fused reporters are not part of them. Residues count along the entry.
UniProt P00797, 67-406: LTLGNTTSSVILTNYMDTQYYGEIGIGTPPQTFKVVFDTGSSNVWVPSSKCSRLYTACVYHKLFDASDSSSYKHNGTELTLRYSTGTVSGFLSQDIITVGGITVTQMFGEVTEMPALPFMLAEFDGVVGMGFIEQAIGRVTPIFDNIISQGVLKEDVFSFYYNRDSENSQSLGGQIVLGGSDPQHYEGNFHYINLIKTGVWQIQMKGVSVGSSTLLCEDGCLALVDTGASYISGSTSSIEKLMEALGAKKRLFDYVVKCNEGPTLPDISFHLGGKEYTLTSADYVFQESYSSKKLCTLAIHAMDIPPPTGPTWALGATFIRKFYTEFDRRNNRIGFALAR

Molecular target: human renin (Homo sapiens, UniProt P00797)
Conditions: Table 7; for Relative LE cf. 7b: LE values normalized to 7b; for LE: based on measured IC50

| Compound | Relative LE cf. 7b | LE |
| --- | --- | --- |
| CCc1nc(N)cc(OC)c1-c1ccc2c(c1)N(CCNC(C)=O)C(=O)C(C)(C)O2 [Compound 33, N-(2-(6-(6-Amino-2-ethyl-4-methoxypyridin-3-yl)-2,2-dimethyl-3-oxo-2H-benzo[b][1,4]oxazin-4(3H)-yl)ethyl)acetamide] | 1.05 | 0.33 |
| CCc1nc(N)cc(C)c1-c1ccc(F)c2c(C)c(CCOC)[nH]c12 [Compound 27, 6-Ethyl-5-(4-fluoro-2-(2-methoxyethyl)-3-methyl-1H-indol-7-yl)-4-methylpyridin-2-amine] | 1.18 | 0.39 |
| CCc1nc(N)cc(C)c1-c1ccc2c(c1)N(CCNC(C)=O)C(=O)C(C)(C)O2 [Compound 32, N-(2-(6-(6-Amino-2-ethyl-4-methylpyridin-3-yl)-2,2-dimethyl-3-oxo-2H-benzo[b][1,4]oxazin-4(3H)-yl)ethyl)acetamide] | 1.06 | 0.35 |
